# scFv variants of Ab-14 (light chain) against a SARS-CoV-2 spike peptide

Data: MIT Lincoln Laboratory AlphaSeq set, Li et al. 2023, doi:10.1038/s41467-023-39022-2, as distributed in FLAb.

The target is the same throughout: PDVDLGDISGINAS, from the HR2 region of SARS-CoV-2 spike.

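Phage display of a naive human antibody library on the peptide gave the parent. These sequences belong to a second round, designed from the earlier measurements on random variants of the parent. Several design methods are mixed in this list. AlphaSeq pools MATa yeast showing the antibodies with MATalpha yeast showing the peptide. After mating in shaken culture at 30 °C for 16 h, diploids were selected and their barcode pairs sequenced. A regression on co-assayed BCL2-family reference pairs converts the normalised counts of each replicate to an apparent Kd. Each pool was mated in six replicate cultures.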

Parent: Ab-14, a human scFv built as VH, a 15-residue (Gly4Ser)3 linker, VL. Only the CDRs of the light chain vary.
VH: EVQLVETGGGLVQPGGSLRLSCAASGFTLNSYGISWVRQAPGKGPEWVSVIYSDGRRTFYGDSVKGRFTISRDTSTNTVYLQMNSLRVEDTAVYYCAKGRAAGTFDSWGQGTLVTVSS
VL: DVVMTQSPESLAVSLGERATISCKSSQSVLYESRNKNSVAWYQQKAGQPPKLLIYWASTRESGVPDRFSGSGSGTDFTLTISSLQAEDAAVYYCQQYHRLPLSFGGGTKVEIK

The parent's light chain CDRs are KSSQSVLYESRNKNSVA, WASTRES, QQYHRLPLS; each variant's own CDRs replace them letter for letter.
This list holds designs with more than six substitutions.
Values are log10 of the apparent Kd in nM; lower means stronger binding.
A mean of the replicates is given; it leaves out those without a signal.
The authors' rule: three or more of the six replicates give a measured affinity, fewer mean a poor binder.

With KVKNMMNQMGTQHQNIA | DGAIKCD | QQYQRLPLW the result was 0.22 (6 of 6 replicates). For MISQLMNMGQFAINSVA | QAEIRNA | QQYDRLPLA, the assay gave 1.97 (3 of 6 replicates). Variant KLSMITGHMSVSKNNVA | EMETRFN | QQYDRLPLS gave 0.66 (6 of 6 replicates). For NVKAMLNMWAPDKHNVA | EADERAS | QQYSRLPLG, the assay gave 0.27 (6 of 6 replicates). Variant HITYGMQVAGRHSKSIA | QAEERAH | QQYDRLPLA gave 1.03 (6 of 6 replicates).

For MINQLYNMGSFAINSVA | QASERCN | QQYDRLPLM, the assay gave 1.19 (6 of 6 replicates). Variant KIGATLNMMAHKKNNVA | DLVTREN | QQYHRLPLS gave 0.97 (6 of 6 replicates). With KAQQSVGYGERMSNSVA | EASTRES | QQYHRLPLS the result was 0.10 (6 of 6 replicates). For KIAATVLYESGQANSVA | QNSTRES | QQYHRLPLS, the assay gave 1.85 (6 of 6 replicates). With ALTRQNLQNTDNLNSIA | EQNQTQE | QQYFRLPFA the result was 1.05 (6 of 6 replicates).

Variant KLSEFMKGLMMRTDSIA | DNNTRGS | QQYDRLPLS gave 1.34 (3 of 6 replicates). With QTTAFYEHGKDQQQAMA | NATMRDQ | QQYERLPLS the result was 1.31 (6 of 6 replicates). Variant KLSCTSEMELKNRNSVA | ELVTRMS | QQYNRLPLS showed 0.74 (6 of 6 replicates). For KVSEFMRGLMKQKNSIA | DNVTRNN | QQYDRLPLS, the assay gave 2.13 (5 of 6 replicates). With KLSWKSLYGETRWSAIA | NTKVRNA | QQYFRLPIQ the result was 1.53 (6 of 6 replicates).

For KWMQMVMQESRNKNSVA | HASTRMQ | QQYHRLPLS, the assay gave 0.92 (6 of 6 replicates). Variant KLLQEVQGRSQNRNSVA | HNSTRED | QQYDRLPLI gave 2.26 (2 of 6 replicates). Variant MISQVMNTLTRHGNNVA | DLTERED | QQYFRLPLS gave 1.02 (6 of 6 replicates). For KISQMVRVGSTKNNSIA | EEATRAD | QQYHRLPLS, the assay gave 1.29 (6 of 6 replicates). Variant KIGATLNQLMHQKNNVA | DLVMREK | QQYHRLPLS showed 0.14 (6 of 6 replicates).

Variant NISESMYFQSRIKNNIA | EMSTRER | QHYHRLPLS showed 1.43 (6 of 6 replicates). With KAQNSQEYESRMKNSVA | NASQRED | QQYHRLPLS the result was 0.08 (6 of 6 replicates). Variant TLYGLTNSMSKNKDNVA | EMSTREA | QQYDRLPLV showed 1.33 (6 of 6 replicates). With KSSQSGEMLSRNKNNVA | DASQRES | QQYHRLPLS the result was -0.01 (6 of 6 replicates). For QLSMLEQNGGRSYSSVA | DDDVRMA | QQYHRLPLS, the assay gave 0.95 (6 of 6 replicates).

Variant ALGDVTRMESNKKNSIA | DMSTRES | QQYHRLPLS gave -0.14 (6 of 6 replicates). With TISQSVNMTSHGRNSVA | QAEMREE | QQYDRLPLS the result was 1.19 (6 of 6 replicates). For SISGFMKTLSSHKNNVA | DMTNRED | QQYDRLPLS, the assay gave 0.37 (6 of 6 replicates). Variant TVGQVTMVESYNKDSVA | QASTRLE | QDYHRLPLS gave 2.16 (5 of 6 replicates). Variant MISQVMNTLTRIGNNVA | DLAEREQ | QQYFRLPLS showed 1.12 (6 of 6 replicates).

With KLAMALSEEFGTYHGVA | DADHRMH | QQYNRLPLS the result was 0.31 (6 of 6 replicates). For HLGIQTQGEMVSTQPVA | QESTRAK | QQYFRLPLI, the assay gave 0.80 (6 of 6 replicates). Variant MIEEGHAGENKNSSNIA | SQDQKTD | QQYQRLPLI gave 0.96 (6 of 6 replicates). Variant TIGGTLMYGMRNRSNVA | EVSERLN | QQYDRLPLE gave 1.67 (6 of 6 replicates). For TLYGLTNSMSKSKDNVA | EMSTREA | QQYDRLPLA, the assay gave 0.76 (6 of 6 replicates).

Variant QLGDNQVGETLMQDAIA | HDALRAD | QQYFRLPLL showed 0.60 (6 of 6 replicates). Variant KLQFSCLYESRDKNSVA | DASYRLS | QQYHRLPLS gave 1.15 (6 of 6 replicates). For MISDLMLQGSRAKNPIA | NASTREY | QQYHRLPLE, the assay gave 1.66 (6 of 6 replicates).

Extract of 4 entries:

TIGGTLMYGMRNRSNVA | EVSERLN | QQYDRLPLE: 1.67 (6 of 6 replicates).
KISQMVRVGSTKNNSIA | EEATRAD | QQYHRLPLS: 1.29 (6 of 6 replicates).
KWMQMVMQESRNKNSVA | HASTRMQ | QQYHRLPLS: 0.92 (6 of 6 replicates).
MISQVMNTLTRIGNNVA | DLAEREQ | QQYFRLPLS: 1.12 (6 of 6 replicates).

The range of this assay differs from that of the first round, and the authors advise against merging the two.
Background: pairings of all light chain designs with three empty control strains gave a value in 4% of cases (median 2.64, 5th percentile 1.59). Values in that range, when seen in few replicates, are hard to tell from nonspecific mating.